One may read the pIC50 as the negative decadic logarithm of the IC50, by convention in mol/L.

Protein sequences, listed by entry. Tags and fused reporters are not part of them. Residues count along the entry.
UniProt P23219, 24-599: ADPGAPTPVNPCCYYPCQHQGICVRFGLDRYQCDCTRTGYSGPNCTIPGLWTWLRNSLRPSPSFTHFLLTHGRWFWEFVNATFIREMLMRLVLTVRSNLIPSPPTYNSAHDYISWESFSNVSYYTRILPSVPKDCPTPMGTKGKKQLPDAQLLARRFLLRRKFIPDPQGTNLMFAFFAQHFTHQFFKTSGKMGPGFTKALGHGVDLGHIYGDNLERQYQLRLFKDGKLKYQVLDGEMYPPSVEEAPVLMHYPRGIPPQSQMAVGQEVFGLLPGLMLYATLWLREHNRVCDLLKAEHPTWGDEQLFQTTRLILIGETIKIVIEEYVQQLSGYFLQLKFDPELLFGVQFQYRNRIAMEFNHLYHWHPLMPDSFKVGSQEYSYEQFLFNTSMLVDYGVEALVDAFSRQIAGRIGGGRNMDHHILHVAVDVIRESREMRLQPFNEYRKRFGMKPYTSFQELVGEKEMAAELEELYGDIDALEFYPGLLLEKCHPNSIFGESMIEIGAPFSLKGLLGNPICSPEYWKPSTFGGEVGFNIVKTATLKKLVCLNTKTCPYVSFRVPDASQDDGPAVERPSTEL

We go through one compound from patent publication US6780870B2, “Pyrimidine derivatives as selective inhibitors of COX-2” (SmithKline Beecham Corporation, priority 2000, dated 2004).

The assay deals with T1, human COX-1 (Homo sapiens, UniProt P23219).
T1 construct: expressed in transfected cells
The experiment in a line: Inhibition of PGE2 release in COS cells stably transfected with human COX-1. The following applies: COS cells stably transfected with cDNA for human COX-1; PGE2 release by enzyme immunoassay; 1 hour preincubation; 30 μM arachidonic acid, 15 minutes. It counts as cell-based. As to the method: Inhibitory activity against human COX-1 and COX-2 was assessed in COS cells which had been stably transfected with cDNA for human COX-1 and human COX-2. 24 Hours prior to experiment, COS cells were transferred from the 175 cm^2 flasks in which they were grown, onto 24-well cell culture plates using the following procedure. The incubation medium (Dulbecco's modified eagles medium (DMEM) supplemented with heat-inactivated foetal calf serum (10% v/v), penicillin (100 IU/ml), streptomycin (100 μg/ml) and geneticin (600 μg/ml)) was removed from a flask of confluent cells (1 flask at confluency contains approximately 1×10^7 cells). 10 ml of phosphate buffered saline (PBS) was added to the flask to wash the cells. Having discarded the PBS, cells were then rinsed in 10 ml trypsin for 20 seconds, after which the trypsin was removed and the flask placed in an incubator (37°) for 1-2 minutes until cells became detached from the flask. The flask was then removed from the incubator and cells resuspended in 10 ml of fresh incubation medium. […]
Following the overnight incubation, the incubation medium was completely removed from the 24-well cell culture plates and replaced with 250 μl fresh DMEM (37° C.). […] The selectivity ratio of inhibition of COX-1 versus COX-2 was calculated by comparing respective IC50 values.

pIC50: −log10 of the molar value.

`CS(=O)(=O)c1ccc(-c2cc(C(F)(F)F)nc(NCc3ccc(F)cc3)n2)cc1` [Example 15, N-(4-fluorobenzyl)-4-[4-(methylsulfonyl)phenyl]-6-(trifluoromethyl)pyrimidin-2-amine]: the negative-log IC50 (pIC50) was less than 4.00.
